Earlier results on 1 substance are cited in patent US5463030A, “Metal chelating agents for medical application” (Research Foundation of the State of New York, priority 1994, dated 1995).

The conditions of this series: cited from earlier work.

Consider “manganese-ethylene dipyridoxal diphosphate [Mn-DPDP]”, for which the “localization in the liver” value is listed as 47%.
